Results reported in PubChem BioAssay AID1948 (National Center for Advancing Translational Sciences (NCATS), 2009).
The list shows a part of the results, in another mix than the full data. The source made the active and inactive calls. Calls come from the whole dose curve; as a rule, active = well fitted activation curve with a large enough effect; inconclusive = small, poorly fitted or top-dose-only effect; inactive = no such curve, though single readings can be large or run the other way.

Assay: qHTS Assay for Compounds that Induce Erasure of Genomic Imprints;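 note: 0% = negative control wells on the plate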
Details: mouse ES Peg3-LacZ reporter, beta-gal luminescence, 40 h; at 60.7 µM (top of the series)

| Structure (SMILES) | activity change, positive = activation |
| --- | --- |
| Cc1cc([N+](=O)[O-])cc([N+](=O)[O-])c1O | inactive: -19.4% |
